From US20250195521A1 (Revolution Medicines, Inc., priority 2020, published 2025)
pEC50, pIC50: −log10 of the molar value.

Protein sequences, listed by entry. Tags and fused reporters are not part of them. Lines headed by an entry give the natural chain unless they say otherwise; changes in a name come on top. Chains listed by the source or under a name are the forms on record and can include a tag or linker. Residues count along the entry.
UniProt P01116, 1-164 with tags or gaps G12C limits assumed: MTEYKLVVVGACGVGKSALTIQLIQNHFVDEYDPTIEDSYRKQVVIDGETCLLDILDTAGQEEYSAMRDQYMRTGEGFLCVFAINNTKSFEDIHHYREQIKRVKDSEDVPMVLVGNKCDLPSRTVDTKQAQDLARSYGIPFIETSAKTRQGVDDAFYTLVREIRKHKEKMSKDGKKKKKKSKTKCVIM
UniProt P01116, 1-164 with tags or gaps G12S limits assumed: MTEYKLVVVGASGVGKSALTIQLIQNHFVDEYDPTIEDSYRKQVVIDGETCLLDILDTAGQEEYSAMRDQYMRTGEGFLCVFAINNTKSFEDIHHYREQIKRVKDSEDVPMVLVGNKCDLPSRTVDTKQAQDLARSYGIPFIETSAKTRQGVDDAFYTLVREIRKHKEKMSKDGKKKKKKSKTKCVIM
UniProt P01116, 1-164 with tags or gaps G12V limits assumed: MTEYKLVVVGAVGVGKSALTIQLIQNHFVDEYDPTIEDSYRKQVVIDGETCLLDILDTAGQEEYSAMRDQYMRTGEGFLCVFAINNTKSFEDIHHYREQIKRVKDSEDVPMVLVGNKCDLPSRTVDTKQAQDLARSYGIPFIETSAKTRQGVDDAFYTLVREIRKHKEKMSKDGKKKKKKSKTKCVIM
UniProt P01116, 1-164 with tags or gaps G13C limits assumed: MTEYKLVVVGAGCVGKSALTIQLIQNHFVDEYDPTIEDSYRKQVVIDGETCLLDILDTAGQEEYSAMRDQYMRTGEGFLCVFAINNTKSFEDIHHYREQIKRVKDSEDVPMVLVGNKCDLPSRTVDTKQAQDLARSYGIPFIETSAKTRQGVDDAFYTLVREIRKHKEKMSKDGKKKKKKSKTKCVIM
UniProt P01116, 1-164 with tags or gaps G12D limits assumed: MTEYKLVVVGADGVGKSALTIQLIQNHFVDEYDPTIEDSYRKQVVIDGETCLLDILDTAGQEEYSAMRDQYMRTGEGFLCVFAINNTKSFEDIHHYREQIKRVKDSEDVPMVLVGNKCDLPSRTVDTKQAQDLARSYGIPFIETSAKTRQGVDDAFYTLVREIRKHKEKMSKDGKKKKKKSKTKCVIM
UniProt P01116, 1-164 with tags or gaps G13D limits assumed: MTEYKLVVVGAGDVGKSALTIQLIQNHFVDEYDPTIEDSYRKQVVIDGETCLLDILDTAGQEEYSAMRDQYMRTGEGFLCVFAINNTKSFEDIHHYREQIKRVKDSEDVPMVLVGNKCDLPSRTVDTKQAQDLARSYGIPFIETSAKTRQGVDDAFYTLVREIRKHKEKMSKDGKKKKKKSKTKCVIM
UniProt P62937, whole entry, stated change not applied: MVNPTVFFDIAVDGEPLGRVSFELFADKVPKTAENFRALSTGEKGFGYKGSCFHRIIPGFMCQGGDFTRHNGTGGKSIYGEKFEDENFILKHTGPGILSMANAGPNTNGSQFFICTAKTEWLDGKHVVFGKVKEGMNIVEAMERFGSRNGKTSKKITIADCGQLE

What was measured:
[1] = biological target: KRAS G12S binding to BRAF RBD (Homo sapiens (Human), UniProt P01116+P62937, G12S); experiment: Ras-Raf disruption/FRET/MOA assay, KRAS G12S; format: biochemical; conditions: read-out: KRAS G12S FRET IC50
[2] = biological target: KRAS G12V binding to BRAF RBD (Homo sapiens (Human), UniProt P01116+P62937, G12V); experiment: Ras-Raf disruption/FRET/MOA assay, KRAS G12V; format: biochemical; conditions: read-out: KRAS G12V FRET IC50
[3] = biological target: K-Ras G12C(GMP-PNP) binding to BRAF RBD (Homo sapiens (Human), UniProt P01116+P62937, G12C); experiment: Disruption of BRAF RBD interaction with K-Ras (FRET / MOA assay), K-Ras G12C; format: biochemical; conditions: read-out: KRAS G12C FRET IC50
[4] = tested on: K-Ras G12C (NCI-H358 cells); experiment: Potency assay: pERK in NCI-H358 cells; format: cell-based, human; conditions: read-out: pERK EC50 (H358 KRAS G12C); NCI-H358 cells, 4 hours
[5] = biological target: KRAS G13C binding to BRAF RBD (Homo sapiens (Human), UniProt P01116+P62937, G13C); experiment: Ras-Raf disruption/FRET/MOA assay, KRAS G13C; format: biochemical; conditions: read-out: KRAS G13C FRET IC50
[6] = biological target: KRAS G12S (Homo sapiens (Human), UniProt P01116+P62937, G12S); experiment: Ras-Raf disruption/FRET/MOA assay, KRAS G12S; format: biochemical; conditions: read-out: KRAS G12S FRET IC50
[7] = biological target: KRAS G13C (Homo sapiens (Human), UniProt P01116+P62937, G13C); experiment: Ras-Raf disruption/FRET/MOA assay, KRAS G13C; format: biochemical; conditions: read-out: KRAS G13C FRET IC50
[8] = biological target: KRAS G12V (Homo sapiens (Human), UniProt P01116+P62937, G12V); experiment: Ras-Raf disruption/FRET/MOA assay, KRAS G12V; format: biochemical; conditions: read-out: KRAS G12V FRET IC50
[9] = tested on: AsPC-1 (K-Ras G12D); experiment: CellTiter-Glo cell viability assay, AsPC-1; format: cell-based, human; conditions: read-out: AsPC-1 Cell Viability IC50, 5-day treatment
[10] = biological target: KRAS G13D (Homo sapiens (Human), UniProt P01116+P62937, G13D); experiment: Ras-Raf disruption/FRET/MOA assay, KRAS G13D; format: biochemical; conditions: read-out: KRAS G13D FRET IC50
[11] = tested on: NCI-H358 (K-Ras G12C); experiment: CellTiter-Glo cell viability assay, H358; format: cell-based, human; conditions: read-out: H358 Cell Viability IC50, 5-day treatment
[12] = biological target: KRAS G12D (Homo sapiens (Human), UniProt P01116+P62937, G12D); experiment: Ras-Raf disruption/FRET/MOA assay, KRAS G12D; format: biochemical; conditions: read-out: KRAS G12D FRET IC50

C=CC(=O)N1CC[C@H](C(=O)N(C)[C@H](C(=O)N[C@H]2Cc3cc(O)cc(c3)-c3ccc4c(c3)c(c(-c3ncccc3COC)n4CC)CC(C)(C)COC(=O)[C@@H]3CCCN(N3)C2=O)C(C)C)C1 [A028]
pIC50 [1]: 7.00 to 8.00 | pIC50 [2]: 7.00 to 8.00 | pIC50 [3]: 7.00 to 8.00

C=CC(=O)N1CC(OC[C@H](C(=O)N[C@H]2C[C@H]3CN(CCO3)c3ccc4c(c3)c(c(-c3cccnc3[C@H](C)OC)n4CC(F)(F)F)CC(C)(C)COC(=O)[C@@H]3CCCN(N3)C2=O)C(C)C)C1
pEC50 [4]: > 5.30

C=CC(=O)N1CC[C@H](C(=O)N(C)[C@H](C(=O)N[C@H]2Cc3cc(O)cc(c3)-c3ccc4c(c3)c(c(-c3cccnc3COC)n4C)CC(C)(C)COC(=O)[C@@H]3CCCN(N3)C2=O)C(C)C)C1
pIC50 [3]: 6.00 to 7.00

C=CC(=O)N1CC[C@H](C(=O)N(C)[C@H](C(=O)N[C@H]2Cc3cc(O)cc(c3)-c3ccc4c(c3)c(c(-c3ncccc3COC)n4CC)CC(C)(C)COC(=O)[C@@H]3CCCN(N3)C2=O)C(C)C)C1 [A016]
pIC50 [3]: 7.00 to 8.00

CCn1c(-c2cccnc2COC)c2c3cc(ccc31)-c1cc(O)cc(c1)C[C@H](NC(=O)[C@H](C(C)C)N(C)C(=O)C1CN(C(=O)C#CCN(C)C)C1)C(=O)N1CCC[C@H](N1)C(=O)OCC(C)(C)C2
pIC50 [5]: > 8.00

CCn1c(-c2ccccc2COC)c2c3cc(ccc31)-c1cc(O)cc(c1)C[C@H](NC(=O)[C@H](C(C)C)N(C)C(=O)[C@H]1CCN(C(=O)/C=C/CN(C)C)C1)C(=O)N1CCC[C@H](N1)C(=O)OCC(C)(C)C2 [Compound A79]
pIC50 [3]: 7.00 to 8.00

C=CC(=O)N1CC[C@H](C(=O)N(C)[C@H](C(=O)N[C@H]2Cc3cc(O)cc(c3)-c3ccc4c(c3)c(c(-c3ncccc3CN(C)C)n4CC)CC(C)(C)COC(=O)[C@@H]3CCCN(N3)C2=O)C(C)C)C1
pIC50 [3]: 7.00 to 8.00

C=CC(=O)N1CC[C@H](C(=O)N(C)[C@H](C(=O)N[C@H]2Cc3cc(O)cc(c3)-c3ccc4c(c3)c(c(-c3ncccc3COC)n4CC)CC(C)(C)COC(=O)[C@@H]3CCCN(N3)C2=O)C(C)C)C1 [A084]
pIC50 [3]: 5.00 to 6.00

C=CC(=O)N1C[C@H](C)[C@H](C(=O)N(C)[C@H](C(=O)N[C@H]2Cc3cc(O)cc(c3)-c3ccc4c(c3)c(c(-c3cccnc3COC)n4CC)CC(C)(C)COC(=O)[C@@H]3CCCN(N3)C2=O)C2CCCC2)C1
pIC50 [3]: 7.00 to 8.00

CCn1c(-c2cccnc2[C@H](C)OC)c2c3cc(ccc31)-c1cc(O)cc(c1)C[C@H](NC(=O)[C@H](C(C)C)N(C)C(=O)[C@H]1CCN(C(=O)[C@H]3CN3)C1)C(=O)N1CCC[C@H](N1)C(=O)OCC(C)(C)C2
pIC50 [6]: 7.00 to 8.00 | pIC50 [7]: 7.00 to 8.00 | pIC50 [8]: 7.00 to 8.00 | pIC50 [9]: 6.00 to 7.00 | pIC50 [10]: 7.00 to 8.00 | pIC50 [11]: > 8.00 | pIC50 [12]: 7.00 to 8.00

C=CC(=O)N1CC[C@H](C(=O)N(C)[C@H](C(=O)N[C@H]2Cc3cc(OC(=O)NCN4CCN(C)CC4)cc(c3)-c3ccc4c(c3)c(c(-c3ccccc3CCOC)n4CC)CC(C)(C)COC(=O)[C@@H]3CCCN(N3)C2=O)C(C)C)C1
pIC50 [3]: 6.00 to 7.00

C=CC(=O)N1CC[C@H](C(=O)N(C)[C@H](C(=O)N[C@H]2Cc3cc(N)cc(c3)-c3ccc4c(c3)c(c(C3=C(COC)CCCC3)n4CC)CC(C)(C)COC(=O)[C@@H]3CCCN(N3)C2=O)C(C)C)C1
pIC50 [3]: 7.00 to 8.00

CO[C@@H](C)c1ncccc1-c1c2c3cc(ccc3n1CC(F)(F)F)-c1cccc(c1)C[C@H](NC(=O)[C@@H](COC1CN(C(=O)C#CC3(C)OCCO3)C1)C(C)C)C(=O)N1CCC[C@H](N1)C(=O)OCC(C)(C)C2
pEC50 [4]: > 5.30

C=CC(=O)N1CC(C(=O)N(C)[C@H](C(=O)N[C@H]2Cc3cc(O)cc(c3)-c3ccc4c(c3)c(c(-c3cccnc3COC)n4CC)CC(C)(C)COC(=O)[C@@H]3CCCN(N3)C2=O)C(C)C)C1
pIC50 [3]: 7.00 to 8.00

CCn1c(-c2cccnc2[C@H](C)OC)c2c3cc(ccc31)-c1cc(O)cc(c1)C[C@H](NC(=O)[C@H](C(C)C)N(C)C(=O)CN(C)C(=O)[C@H]1CN1)C(=O)N1CCC[C@H](N1)C(=O)OCC(C)(C)C2 [42 B]
pIC50 [6]: 5.00 to 6.00 | pIC50 [7]: 6.00 to 7.00 | pIC50 [8]: 5.00 to 6.00 | pIC50 [9]: 5.00 to 6.00 | pIC50 [10]: 5.00 to 6.00 | pIC50 [11]: 7.00 to 8.00 | pIC50 [12]: 5.00 to 6.00
